Holding throughout (assay): ELISA
A general note: In an ELISA, binding on a coated surface is turned into a signal by an enzyme label.

The target in assay [1] is T1, human VEGF (Beijing Sino Biological Inc., Catalog No. 11066-HNAH) (human, UniProt P15692 27-191).
The target of assay [2] is T1, human VEGF (Beijing Sino Biological …). The source holds these as a separate data set.
Assay [3] shares this target. This is another data set of the same source.
Assay [4] has as its target T2, mouse VEGF (Beijing Sino Biological Inc., Catalog No. 50159-MNAB) (mouse, UniProt Q00731 27-190).
T2 chain: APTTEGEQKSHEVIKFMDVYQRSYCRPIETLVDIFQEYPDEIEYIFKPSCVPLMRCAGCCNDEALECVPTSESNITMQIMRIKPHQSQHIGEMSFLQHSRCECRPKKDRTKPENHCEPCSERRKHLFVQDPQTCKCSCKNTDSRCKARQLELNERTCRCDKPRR

Positions count from the first letter of the chain named. Read-outs that look alike come from different tables or passages of the source.

B1: anti PD-1(BJHM)/VEGF(Bevaci) heterodimeric antibody (bispecific antibody)
heavy 1: EVNLVESGGGLVQPGGSLRLSCAASGFTFSSYGMSWVRQAPGKGLEWVASISGGGRYTYYPDSMKGRFTISRDNSKNNLYLQMNSLRAEDTAVYYCVYEYFYTMDYWGQGTLVTVSSASTKGPSVFPLAPSSKSTSGGTAALGCLVKDYFPEPVTVSWNSGALTSGVHTFPAVLQSSGLYSLSSVVTVPSSSLGTQTYICNVNHKPSNTKVDKKVEPKSCDKTHTCPPCPAPELLGGPSVFLFPPKPKDTLMISRTPEVTCVVVDVSHEDPEVKFNWYVDGVEVHNAKTKPREEQYASTYRVVSVLTVLHQDWLNGKEYKCKVSNKALPAPIEKTISKAKGQPREPQVYTLPPSRDELTKNQVSLLCLVKGFYPSDIAVEWESNGQPENNYKTTPPVLRSDGSFFLYSKLTVDKSRWQQGNVFSCSVMHEALHNHYTQKSLSLSPGK
light 1: DIVLTQSPATLSLSPGERATLSCRASQSISNNLHWYQQKPGQAPRLLIRFASQSISGIPARFSGSGSGTDFTLTISSLEPEDFAVYFCQQSDNWPLTFGGGTKVEIKRTVAAPSVFIFPPSDEQLKSGTASVVCLLNNFYPREAKVQWKVDNALQSGNSQESVTEQDSKDSTYSLSSTLTLSKADYEKHKVYACEVTHQGLSSPVTKSFNRGEC
heavy 2: EVQLVESGGGLVQPGGSLRLSCAASGYTFTNYGMNWVRQAPGKGLEWVGWINTYTGEPTYAADFKRRFTFSLDTSKSTAYLQMNSLRAEDTAVYYCAKYPHYYGSSHWYFDVWGQGTLVTVSSASTKGPSVFPLAPSSKSTSGGTAALGCLVKDYFPEPVTVSWNSGALTSGVHTFPAVLQSSGLYSLSSVVTVPSSSLGTQTYICNVNHKPSNTKVDKKVEPKSCDKTHTCPPCPAPELLGGPSVFLFPPKPKDTLMISRTPEVTCVVVDVSHEDPEVKFNWYVDGVEVHNAKTKPREEQYASTYRVVSVLTVLHQDWLNGKEYKCKVSNKALPAPIEKTISKAKGQPREPQVYTEPPSRDELTKNQVSLTCLVKGFYPSDIAVEWESNGQPENNYKTTPPVLDSDGSFFLLSVLTVDKSRWQQGNVFSCSVMHEALHNHYTQKSLSLSPGK
light 2: not shown
B1: the EC50 in assay [1] turned out to be 0.054 nM.

B2: anti-VEGF(Bevaci)/PD-1(BJHM) heterodimeric antibody (bispecific antibody)
heavy 1: B1 heavy 2 with E357L, T372L, D405R, L413Y, V415K
light 1: not shown
heavy 2: B1 heavy 1 with L351E, L366T, R399D, Y407L, K409V
light 2: B1 light 1
Take B2: the EC50 in assay [1] is 0.056 nM.

B3: anti-PD-1 (BJHM)/VEGF (G631) heterodimeric antibody (bispecific antibody)
heavy 1: B1 heavy 1
light 1: B1 light 1
heavy 2: EVQLVESGGGLVQPGGSLRLSCAASGFTISDYWIHWVRQAPGKGLEWVAGITPAGGYTYYADSVKGRFTISADTSKNTAYLQMNSLRAEDTAVYYCARFVFFLPYAMDYWGQGTLVTVSSASTKGPSVFPLAPSSKSTSGGTAALGCLVKDYFPEPVTVSWNSGALTSGVHTFPAVLQSSGLYSLSSVVTVPSSSLGTQTYICNVNHKPSNTKVDKKVEPKSCDKTHTCPPCPAPELLGGPSVFLFPPKPKDTLMISRTPEVTCVVVDVSHEDPEVKFNWYVDGVEVHNAKTKPREEQYASTYRVVSVLTVLHQDWLNGKEYKCKVSNKALPAPIEKTISKAKGQPREPQVYTEPPSRDELTKNQVSLTCLVKGFYPSDIAVEWESNGQPENNYKTTPPVLDSDGSFFLLSVLTVDKSRWQQGNVFSCSVMHEALHNHYTQKSLSLSPGK
light 2: not shown
For B3, it took 0.139 nM to reach a half-maximal effect in assay [2] (EC50). This molecule displayed an IC50 in assay [3] of 0.132 nM.

B4: VEGF (G631) monoclonal antibody (antibody, V domains shown)
VH: EVQLVESGGGLVQPGGSLRLSCAASGFTISDYWIHWVRQAPGKGLEWVAGITPAGGYTYYADSVKGRFTISADTSKNTAYLQMNSLRAEDTAVYYCARFVFFLPYAMDYWGQGTLVTVSS
VL: DIQMTQSPSSLSASVGDRVTITCRASQDVSTAVAWYQQKPGKAPKLLIYSASFLYSGVPSRFSGSGSGTDFTLTISSLQPEDFATYYCQQGYGNPFTFGQGTKVEIK
Molecule B4 showed an EC50 in assay [4] of 0.046 nM. Moreover, inhibition in assay [3] was half-maximal at 0.11 nM (IC50).

B5: anti-PD-1 (Pembro)/VEGF (G631) heterodimeric antibody (bispecific antibody)
heavy 1: QVQLVQSGVEVKKPGASVKVSCKASGYTFTNYYMYWVRQAPGQGLEWMGGINPSNGGTNFNEKFKNRVTLTTDSSTTTAYMELKSLQFDDTAVYYCARRDYRFDMGFDYWGQGTTVTVSSASTKGPSVFPLAPSSKSTSGGTAALGCLVKDYFPEPVTVSWNSGALTSGVHTFPAVLQSSGLYSLSSVVTVPSSSLGTQTYICNVNHKPSNTKVDKKVEPKSCDKTHTCPPCPAPELLGGPSVFLFPPKPKDTLMISRTPEVTCVVVDVSHEDPEVKFNWYVDGVEVHNAKTKPREEQYASTYRVVSVLTVLHQDWLNGKEYKCKVSNKALPAPIEKTISKAKGQPREPQVYTLPPSRDELTKNQVSLLCLVKGFYPSDIAVEWESNGQPENNYKTTPPVLRSDGSFFLYSKLTVDKSRWQQGNVFSCSVMHEALHNHYTQKSLSLSPGK
light 1: EIVLTQSPATLSLSPGERATLSCRASKGVSTSGYSYLHWYQQKPGQAPRLLIYLASYLESGVPARFSGSGSGTDFTLTISSLEPEDFAVYYCQHSRDLPLTFGGGTKVEIKRTVAAPSVFIFPPSDEQLKSGTASVVCLLNNFYPREAKVQWKVDNALQSGNSQESVTEQDSKDSTYSLSSTLTLSKADYEKHKVYACEVTHQGLSSPVTKSFNRGEC
heavy 2: B3 heavy 2
light 2: not shown
B5: the figures for the EC50 in assay [4] and in assay [2] were 0.088 nM and 0.208 nM, respectively. The molecule further displayed an IC50 in assay [3] of 0.137 nM.

One may read the EC50 as the midpoint of the concentration-response curve. A word on the IC50: it is the midpoint of a concentration-inhibition curve.
